# According to patent US6689764B1, “Treatment of angiogenesis dependent conditions with dextrin sulphate” (priority 1999, dated 2004):
# System: peritoneal macrophages
# Conditions: 100 μg/ml, after 3 weeks of continuous culture
row,Substance,accumulation in cultured cells
1,dextrin 2-sulphate,only found to accumulate in peritoneal macrophages
2,dextrin 6-sulphate,only found to accumulate in peritoneal macrophages
